# Data reported in US10196424B2, “Oral peptide inhibitors of interleukin-23 receptor and their use to treat inflammatory bowel diseases” (Protagonist Therapeutics, Inc., priority 2014, dated 2019).
# Target: T1, human IL-23R (Homo sapiens, UniProt Q5VWK5)
# T1 sequence (Q5VWK5 24-353): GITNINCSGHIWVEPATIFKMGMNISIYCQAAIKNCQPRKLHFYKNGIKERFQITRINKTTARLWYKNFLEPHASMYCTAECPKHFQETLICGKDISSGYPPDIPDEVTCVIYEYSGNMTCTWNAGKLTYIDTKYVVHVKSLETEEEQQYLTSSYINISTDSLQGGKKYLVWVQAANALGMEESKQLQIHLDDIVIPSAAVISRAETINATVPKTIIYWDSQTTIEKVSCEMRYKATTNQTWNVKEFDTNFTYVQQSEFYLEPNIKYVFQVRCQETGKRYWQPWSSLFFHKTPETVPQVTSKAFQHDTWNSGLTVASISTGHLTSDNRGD
# Assay: IL23-IL23R Competitive Binding ELISA (Human ELISA)
# Details: Table 3H
row,Compound,IC50
1,CCCCCCCCCCCCCCCC(=O)NCCCC[C@H](NC(=O)[C@H](CCCN)NC(=O)[C@H](Cc1c[nH]c2ccccc12)NC(=O)[C@H](Cc1ccc(O)cc1)NC(=O)[C@@H]1CSSC[C@H](NC(C)=O)C(=O)N[C@@H](CCC(N)=O)C(=O)N[C@@H]([C@@H](C)O)C(=O)N[C@@H](Cc2c[nH]c3ccccc23)C(=O)N[C@@H](CCC(N)=O)C(=O)N1)C(=O)N[C@@H](CC(N)=O)C(=O)NCC(N)=O [compound 501],> 6 µM
2,CCCCCCCCCCCCCCCC(=O)NCCCC[C@H](NC(=O)[C@H](CCC(=O)O)NC(=O)[C@H](CC(C)C)NC(=O)[C@H](Cc1c[nH]c2ccccc12)NC(=O)[C@H](Cc1ccc(O)cc1)NC(=O)[C@@H]1CSSC[C@H](NC(C)=O)C(=O)N[C@@H](CCC(N)=O)C(=O)N[C@@H]([C@@H](C)O)C(=O)N[C@@H](Cc2c[nH]c3ccccc23)C(=O)N[C@@H](CCC(N)=O)C(=O)N1)C(=O)NCC(N)=O [compound 517],> 6 µM
